Results on 1 compound are retold here after PubChem BioAssay AID602151 (Vanderbilt Specialized Chemistry Center, 2011).

Chains of the proteins cited; added tags and fusions are not shown. Lines headed by an entry give the natural chain unless they say otherwise; changes in a name come on top.
UniProt Q13393: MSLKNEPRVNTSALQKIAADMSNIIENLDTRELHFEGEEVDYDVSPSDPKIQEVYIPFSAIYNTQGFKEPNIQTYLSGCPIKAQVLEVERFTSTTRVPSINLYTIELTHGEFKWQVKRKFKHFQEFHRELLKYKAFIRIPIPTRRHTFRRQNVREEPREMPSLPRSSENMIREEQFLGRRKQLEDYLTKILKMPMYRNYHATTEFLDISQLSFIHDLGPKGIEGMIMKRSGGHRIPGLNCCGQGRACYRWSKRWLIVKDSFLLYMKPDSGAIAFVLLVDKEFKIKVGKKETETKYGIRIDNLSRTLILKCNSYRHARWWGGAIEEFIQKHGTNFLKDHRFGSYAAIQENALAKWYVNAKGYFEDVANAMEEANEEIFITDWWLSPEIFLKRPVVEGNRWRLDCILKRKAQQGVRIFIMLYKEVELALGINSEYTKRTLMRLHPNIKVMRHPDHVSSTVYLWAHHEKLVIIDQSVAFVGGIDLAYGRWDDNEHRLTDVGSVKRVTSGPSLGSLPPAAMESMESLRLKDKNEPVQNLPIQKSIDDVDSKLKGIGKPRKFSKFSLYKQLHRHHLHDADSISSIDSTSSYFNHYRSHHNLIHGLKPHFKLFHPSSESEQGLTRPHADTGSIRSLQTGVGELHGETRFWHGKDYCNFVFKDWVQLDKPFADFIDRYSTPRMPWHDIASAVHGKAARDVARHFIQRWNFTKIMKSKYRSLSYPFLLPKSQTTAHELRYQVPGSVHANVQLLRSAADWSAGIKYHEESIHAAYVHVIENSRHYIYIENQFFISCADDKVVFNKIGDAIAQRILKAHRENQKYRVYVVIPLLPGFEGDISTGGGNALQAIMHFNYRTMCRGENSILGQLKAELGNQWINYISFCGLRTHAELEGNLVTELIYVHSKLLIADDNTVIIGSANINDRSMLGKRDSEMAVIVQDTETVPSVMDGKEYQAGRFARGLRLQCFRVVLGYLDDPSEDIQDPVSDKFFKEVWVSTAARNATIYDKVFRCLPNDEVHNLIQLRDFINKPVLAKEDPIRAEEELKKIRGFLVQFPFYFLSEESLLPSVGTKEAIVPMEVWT

As a reminder, the IC50 is the concentration needed to halve the response being measured.

This assay deals with Phospholipase D1 (Homo sapiens) (UniProt Q13393). The assay is described as follows: cellular phospholipase D1 inhibition IC50 – cell-based, dose response (AID 602151). The note with it: cellular PLD1 activity assay.

For the compound `O=C(NCCN1CCC2(CC1)C(=O)NCN2c1cccc(F)c1)c1ccc(F)cc1`, the concentration for half-maximal inhibition (IC50) was 12 µM.
